Data: PubChem BioAssay AID1552 (Sanford-Burnham Center for Chemical Genomics, 2009)
Calls of active or inactive are those of the source. The rule behind the calls is not given here.

Chains of the proteins cited; added tags and fusions are not shown.
UniProt P61088, whole entry: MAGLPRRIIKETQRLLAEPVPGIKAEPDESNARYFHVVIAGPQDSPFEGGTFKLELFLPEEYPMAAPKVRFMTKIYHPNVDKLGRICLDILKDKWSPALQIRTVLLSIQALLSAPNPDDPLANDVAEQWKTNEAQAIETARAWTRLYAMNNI

Molecular target: Ubiquitin-conjugating enzyme E2 N (Homo sapiens) (UniProt P61088)
Test: UBE2N binders by NMR, biophysical, purified protein (AID 1552)
Details: NMR binding to purified UBE2N

| Structure (SMILES) | Kd |
| --- | --- |
| OC1CN2CCC1CC2 (configuration not stated) | inactive: > 4 mM |
| CP(N)(=O)Oc1ccc(Cl)cc1 (configuration not stated) | inactive: > 4 mM |
